Results taken from patent publication US20260200946A1, “KRAS(G12V) INHIBITORS” (Ranok Therapeutics (Hangzhou) Co. Ltd., priority 2022, published 2026).

Amino acid sequences for entries named in this document (tags omitted). Residues count along the entry.
UniProt P01116, 1-188 isoform 2 G12V: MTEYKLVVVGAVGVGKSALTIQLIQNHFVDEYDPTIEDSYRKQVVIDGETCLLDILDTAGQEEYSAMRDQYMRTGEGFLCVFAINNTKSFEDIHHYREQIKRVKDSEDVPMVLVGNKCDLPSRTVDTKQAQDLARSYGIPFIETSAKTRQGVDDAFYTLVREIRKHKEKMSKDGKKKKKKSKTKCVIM

What was measured:
[1] = tested on: NCIH727 cells; experiment: Cancer cell line proliferation (CellTiter-Glo), NCI-H727; details: read-out: NCI-H727, NCIH727 lung carcinoid, heterozygous G12V, 72 hr, tested form: formate
[2] = molecular target: KRAS(G12V)/SOS1 (Homo sapiens, UniProt P01116, G12V); experiment: KRAS(G12V)/SOS1 homogeneous time-resolved fluorescence (HTRF) assay; format: binding; details: read-out: HTRF of KRASG12V-SOS1; absence of GTP; 4° C., 3 hours; tested form: formate
Protocol: Binding of test compounds to KRAS(G12V) target protein, which in turn blocks KRAS(G12V) interaction with the SOS1 protein, was measured in the absences of GTP by homogeneous time-resolved fluorescence using the KRAS-G12V/SOS1 Binding Assay Kit (Cisbio, 63ADK000CB18PEH), following the manufacturer's instructions, except as noted. 3-fold serial dilutions of each test compound were prepared ranging from 20 µM to 1.02 nM. The test compound was mixed and incubated with reaction components, incubated in a sealed plate at 4° C. for 3 hours and fluorescence was measured using a PerkinElmer Envision plate reader. The KRAS(G12V)-SOS1 IC50 values (the concentration of 50% of the maximal inhibition) were calculated using GraphPad Prism 8.0 software.

[3] = tested on: SW620 cells; experiment: Cancer cell line proliferation (CellTiter-Glo), SW620; format: cell-based; details: read-out: SW620, SW620 colorectal adenocarcinoma, homozygous G12V, 72 hr, tested form: formate

C#Cc1c(F)ccc2cc(O)cc(-c3nc(OC)c4c(N5CC6CCC(C5)N6C(=O)CCC#N)nc(OCC5(CN6CCC(F)CC6)CC5)nc4c3F)c12
EC50 [1]: 100 to 1000 nM | IC50 [2]: < 100 nM | EC50 [3]: 100 to 1000 nM

C#Cc1c(F)ccc2cc(O)cc(-c3nc(OC)c4c(N5CC6CCC(C5)N6C(=O)CC(C)(C)C)nc(OCC5(CN6CCC(F)CC6)CC5)nc4c3F)c12
EC50 [1]: > 1000 nM | IC50 [2]: < 100 nM | EC50 [3]: 100 to 1000 nM

C#Cc1c(F)ccc2cc(O)cc(-c3nc(OC)c4c(N5CC6CCC(C5)N6C(=O)CC#N)nc(OCC5(CN6CCC(F)CC6)CC5)nc4c3F)c12
EC50 [1]: 100 to 1000 nM | IC50 [2]: < 100 nM | EC50 [3]: 100 to 1000 nM
